ChEMBL document CHEMBL3098022, “Multifunctional cholinesterase and amyloid Beta fibrillization modulators. Synthesis and biological investigation” (ACS Med Chem Lett, 2013)

Species on record: Homo sapiens
Assay: Selectivity ratio of Ki for human acetylcholine esterase to Ki for human butyrylcholine esterase

Structure (SMILES)	Ratio Ki
CN(CCCCNc1c2c(nc3ccccc13)CCCC2)CCCNc1c2c(nc3ccccc13)CCCC2	0.01
c1ccc2c(NCCCCCCCCSc3c4c(nc5ccccc35)CCCC4)c3c(nc2c1)CCCC3	16.9
